Results as given in PubChem BioAssay AID485281 (National Center for Advancing Translational Sciences (NCATS), 2010).
Values joined by “and” are separate entries in the source; they are usually repeats but may differ in a detail not shown here. Identical values can stand only once. The entries are a selection whose mix differs from that of the whole data set. Some tests of the compounds listed are not included; inactive here does not mean inactive elsewhere. Results filed as inconclusive are left out. Active and inactive are the calls of the source. Calls come from the whole dose curve; as a rule, active = well fitted inhibition curve with a large enough effect; inconclusive = small, poorly fitted or top-dose-only effect; inactive = no such curve, though single readings can be large or run the other way.

By UniProt entry, the sequences of proteins in these tests, tags left out. Residues count along the entry.
UniProt P02791, 2-175 limits assumed: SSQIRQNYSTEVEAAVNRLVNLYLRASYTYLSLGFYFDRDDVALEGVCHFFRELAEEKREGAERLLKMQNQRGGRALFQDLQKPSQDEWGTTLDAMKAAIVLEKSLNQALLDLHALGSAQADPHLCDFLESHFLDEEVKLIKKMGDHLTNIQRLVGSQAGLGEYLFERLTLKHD

The molecules below were run against Ferritin light chain (Equus caballus) (UniProt P02791) (assay: qHTS Assay for Identification of Novel General Anesthetics). Settings: apoferritin/1-aminoanthracene competitive binding, fluorescence; at 77.5 µM (top of the series).
% is set by controls: 0 for no effect and ±100 for the full control effect.
Note: nearly all actives have a fitted effect of over 20% in size.

SMILES	activity change, negative = displacement
COc1ccc(Br)c(C(=O)NCC2(N3CCCCC3)CCCCC2)c1	inactive: -1.75%
Cc1cccc(C(=O)NCC2(N(C)C)CCCCC2)c1	inactive: 8.25%
COc1cc(C(=O)NCC2(N(C)C)CCCCC2)cc(OC)c1OC	inactive: 4.46%
CN(C)c1cccc(C(=O)NCC2(N(C)C)CCCCC2)c1	inactive: -4.77%
CC(C)Oc1ccc(C(=O)NCC2(N(C)C)CCCCC2)cc1	inactive: 5.78% and inactive: -4.48%
O=C(OC1CN2CCC1CC2)C(CO)(c1ccccc1)c1ccccc1 (centres undefined)	inactive: 4.66%
COc1cccc(C(=O)NCC2(N3CCOCC3)CCCCC2)c1	inactive: -3.59%
CC(C)COc1ccc(C(=O)NCC2(N(C)C)CCCCC2)cc1	inactive: -13.4%
COc1ccc(C(=O)NCC2(N(C)C)CCCCC2)cc1Cl	inactive: 4.91%
COc1ccc(Cl)cc1C(=O)NCC1(N(C)C)CCCCC1	inactive: 0.326%
COc1cccc(C(=O)NCC2(N3CCCCC3)CCCCC2)c1	inactive: -7.33%
O=C(NCC1(N2CCCCC2)CCCCC1)c1cccc(Cl)c1	inactive: -8.4%
CN(C)C1(CNC(=O)c2ccc(Br)cc2)CCCCC1	inactive: 0.567%
COc1cc(C(=O)NCC2(N(C)C)CCCCC2)c([N+](=O)[O-])cc1OC	inactive: -0.871%
O=C(NCC1(N2CCCCC2)CCCCC1)c1cc(F)c(F)cc1Cl	inactive: -9.59%
C=CCN1CCN(CCOC(=O)C(O)(c2ccccc2)c2ccccc2)CC1	inactive: -2.25%
O=C(NCC1(N2CCCCC2)CCCCC1)c1cccc(Br)c1	inactive: -11.8%

SMILES	activity change, negative = displacement
Cc1cc(C(=O)NCC2(N3CCCCC3)CCCCC2)ccc1[N+](=O)[O-]	inactive: -0.74%
CCN1CCCC(OC(=O)C2(O)c3ccccc3C=Cc3ccccc32)C1 (centres undefined)	inactive: -12.4%
CCOc1cccc(C(=O)NCC2(N(C)C)CCCCC2)c1	inactive: -1.37%
COc1ccc(C(=O)NCC2(N(C)C)CCCCC2)cc1	inactive: -3.67%
CN(C)C1CCCC1OC(=O)C(O)(c1ccccc1)c1ccccc1 (centres undefined)	inactive: -4.9%
CN(C)c1ccc(C(=O)NCC2(N(C)C)CCCCC2)cc1	inactive: 2.4%
CN(C)C1(CNC(=O)c2ccccc2[N+](=O)[O-])CCCCC1	inactive: 4%
Cc1ccccc1C(=O)NCC1(N2CCCCC2)CCCCC1	inactive: -8.74%
CCCCOc1ccccc1C(=O)NCC1(N(C)C)CCCCC1	inactive: 5.76%
CC(C)N1C(=O)CC2(CCN(CCOC(=O)C(O)(c3ccccc3)c3ccccc3)CC2)C1=O	inactive: -12.5%
COc1cc(SC)ccc1C(=O)NCC1(N(C)C)CCCCC1	inactive: -5.35%
CN(C)C1(CNC(=O)c2cccc(Cl)c2)CCCCC1	inactive: -5.48%
CCN(CC)CC(C)C(C)OC(=O)C(O)(c1ccccc1)c1ccccc1 (centres undefined)	inactive: 3.42%
CN(C)C1(CNC(=O)c2ccccc2F)CCCCC1	inactive: 11%
Cc1ccc(C(=O)NCC2(N3CCCCC3)CCCCC2)cc1	inactive: -3.95%
O=C(NCC1(N2CCCCC2)CCCCC1)c1cc([N+](=O)[O-])ccc1Cl	inactive: -7.62%
CN1[C@@H]2CC[C@H]1CC(OC(=O)C(O)(c1ccccc1)c1ccccc1)C2 (some centres undefined)	inactive: -0.189%
